# Source: PMC12785511, “Integrative Profiling for BBB Permeability Using Capillary Electrochromatography, Experimental Physicochemical Parameters, and Ensemble Machine Learning” (International Journal of Molecular Sciences, 2025)
# Assays:
# [1] = Sirius T3 automated potentiometric titrations with n-octanol, log P / log D; settings: n-octanol/water, pH 7.4
# [2] = rat, in vivo; cited from earlier work
smiles,measurement,setting,value
Cc1nc2n(c(=O)c1CCN1CCC(c3noc4cc(F)ccc34)CC1)CCCC2 [risperidone],logD,[1],2.17
CCN(C)C(=O)Oc1cccc([C@H](C)N(C)C)c1 [rivastigmine],Log BB,[2],0.88
